Measured values published in PMC4607407 (PLoS ONE, 2015).

System: KPL-4 tumors
Experiment: KPL-4 xenograft combination study
Assay type: in vivo, mice
Conditions: vs untreated control; ARQ 092 60 mg/kg oral daily 12 days; trastuzumab 15 mg/kg iv every three days; paclitaxel 15 mg/kg iv every 6 days
Protocol: Paclitaxel was dosed, intravenously at a dose of 15 mg/kg every 6 days.
The tumor length and width (mm) were measured using a digital caliper. The estimated tumor volume (mm^3) was calculated according to the following formula: 0.5 x (tumor length) x (tumor width)^2, and reported as the mean ± SEM.

trastuzumab: trastuzumab purchased from Chugai Pharmaceutical Co.
tumor growth inhibition: 38%
